Laboratory results as given in PubChem BioAssay AID588549 (Broad Institute, 2011).
The list shows a part of the results, in another mix than the full data. Calls of active or inactive are those of the source. No stated cut-off is given here; in the data, active means inhibition above about 8.5% (passing the limit was not always enough); inconclusive means no clear call, values can overlap the other calls.

test system: Mycobacterium tuberculosis FadD28 fatty-acid-AMP ligase; assay: inhibitors of FadD28 bisubstrate probe binding, primary screen, biochemical, fluorescence polarization, single point (AID 588549); settings: at 12.5 µM, stronger effect = higher value

Question: For CCC(=O)N(c1ccccc1)C1(COC)CCN(CCn2nnn(CC)c2=O)CC1, which inhibition is on record?
Answer: inactive: -5.52%

Question: How did the inhibition turn out when CCC(=O)N(c1ccccc1)C1(COC)CCN(CCc2cccs2)CC1 was run?
Answer: inactive: 1.41%
